The values that follow come from patent US5030634A, “10-deazaaminopterin: a new arthritis remittive drug” (priority 1990, dated 1991).

In test [1] the test system is rheumatoid arthritis patients. Conditions: for Joint Swelling: 58 joints (0-3/joint), values printed on the line 'Grip Strength'; for Joint Pain/Tenderness: 60 joints (0-3/joint).
The conditions of test [2]: compared with methotrexate; cited from earlier work.
Setting [3] is: V6 (6th visit, week 18), n = 5 10-deazaaminopterin, n = 6 methotrexate.

Where two headings read alike, the source gives them in different places.

With `CN(Cc1cnc2nc(N)nc(N)c2n1)c1ccc(C(=O)N[C@@H](CCC(=O)O)C(=O)O)cc1` [methotrexate, reference compound], in test [1] (V0 (baseline), n = 7 per arm), the “General Activity Level (0-16)” value is 6.8, the “Grip Strength L” value turned out to be 132 mm Hg, the “Grip Strength R” value is 140 mm Hg and the “Morning Stiffness” value amounted to 0.84 h. Moreover, in test [1] (V0 (baseline), n = 7 per arm), the “Pain Level (0-3)” value turned out to be 2.3, the “Patient Assessment (1-5)” value is 2.3, the “Physician Assessment (1-5)” value is listed as 2.1 and the “Joint Swelling” value was 27.8. Further, in test [1] (V0 (baseline), n = 7 per arm), the “Joint Pain/Tenderness” value amounted to 33.2. Further, in test [1] (V3 (3rd visit), n = 7 per arm), the “Grip Strength L” value is 138 mm Hg, the “Grip Strength R” value amounted to 147 mm Hg, the “Morning Stiffness” value amounted to 0.32 h and the “Joint Swelling” value was 23. In addition, the “Joint Pain/Tenderness” value in test [1] (V3 (3rd visit), n = 7 per arm) came to 17.2. Further, in test [1] (setting [3]), the “General Activity Level (0-16)” value was 3.5, the “Grip Strength L” value was determined as 145 mm Hg, the “Grip Strength R” value is 163 mm Hg and the “Morning Stiffness” value came to 0.37 h. In addition, in test [1] (setting [3]), the “Pain Level (0-3)” value amounted to 1, the “Patient Assessment (1-5)” value was determined as 2.1, the “Physician Assessment (1-5)” value is 2.1 and the “Joint Swelling” value was 13.8. In addition, in test [1] (setting [3]), the “Joint Pain/Tenderness” value was found to be 12.
Consider `Nc1nc(N)c2nc(CCc3ccc(C(=O)NC(CCC(=O)O)C(=O)O)cc3)cnc2n1` (centres unmarked) [10-deazaaminopterin], for which, in test [1] (V0 (baseline), n = 7 per arm), the “General Activity Level (0-16)” value was found to be 7.8, the “Grip Strength L” value is 123 mm Hg, the “Grip Strength R” value came to 122 mm Hg and the “Morning Stiffness” value is given as 1.47 h. For the same molecule, in test [1] (V0 (baseline), n = 7 per arm), the “Pain Level (0-3)” value is reported as 1.8, the “Patient Assessment (1-5)” value is 2.7, the “Physician Assessment (1-5)” value is recorded as 2.7 and the “Joint Swelling” value turned out to be 21.5. Moreover, the “Joint Pain/Tenderness” value in test [1] (V0 (baseline), n = 7 per arm) came out at 30.1. In addition, in test [1] (V3 (3rd visit), n = 7 per arm), the “Grip Strength L” value turned out to be 136 mm Hg, the “Grip Strength R” value was 171 mm Hg, the “Morning Stiffness” value is recorded as 0.60 h and the “Joint Swelling” value is given as 15.2. Besides, in test [1] (V3 (3rd visit), n = 7 per arm), the “Joint Pain/Tenderness” value is on record as 18.5. For the same molecule, in test [1] (setting [3]), the “General Activity Level (0-16)” value stood at 2.2, the “Grip Strength L” value is on record as 188 mm Hg, the “Grip Strength R” value stood at 184 mm Hg and the “Morning Stiffness” value is given as 0.05 h. In test [1] (setting [3]), the “Pain Level (0-3)” value came out at 0.8, the “Patient Assessment (1-5)” value is listed as 2.3, the “Physician Assessment (1-5)” value was found to be 2.3 and the “Joint Swelling” value came out at 11.4. For the same molecule, in test [1] (setting [3]), the “Joint Pain/Tenderness” value was found to be 10.8. The “Anti-proliferative activity versus methotrexate (in words)” value in test [2] is given as “more powerful anti-proliferative agent than methotrexate”.
